The values that follow are results of earlier work, collected in article PMC7607624 (Journal of nuclear medicine : official publication, Society …, 2013).

For this data set the following is noted: in vivo; cited from earlier work.

In the case of 18F-FDG, the “Organ dose, Adrenals” value is reported as 13 μGy/MBq; the “Organ dose, Brain” value is listed as 19 μGy/MBq; the “Organ dose, Breasts” value was 9.2 μGy/MBq; the “Organ dose, Gallbladder Wall” value is given as 14 μGy/MBq. Moreover, the “Organ dose, Heart Wall” value was 60 μGy/MBq; the “Organ dose, Kidneys” value is on record as 20 μGy/MBq; the “Organ dose, Lower Large Intestine Wall” value is 17 μGy/MBq; the “Organ dose, Lungs” value is 17 μGy/MBq. The “Organ dose, Muscle” value was 11 μGy/MBq; the “Organ dose, Ovaries” value was 17 μGy/MBq; the “Organ dose, Red Marrow” value was 13 μGy/MBq; the “Organ dose, Small Intestine” value is given as 14 μGy/MBq. In addition, the “Organ dose, Stomach Wall” value is recorded as 13 μGy/MBq; the “Organ dose, Testes” value is given as 13 μGy/MBq; the “Organ dose, Upper Large Intestine Wall” value is recorded as 13 μGy/MBq; the “Organ dose, Urinary Bladder Wall” value is reported as 190 μGy/MBq.
